# Key:
# bak intron 1 ISRE = format: cell-based, human
# Procedure: (§1) To examine the transcription factors that specifically bind promoter and neighboring elements of the bak gene and presumably mediate INF-γ and poly (I-C) induction of bak mRNA synthesis, electrophoretic mobility shift and supershift assays were performed. […] These oligonucleotides were radioactively end-labelled with ^32P-ATP and T4 polynucleotide kinase, and allowed to interact with nuclear extracts prepared from HT-29 cells as described (Bomsztyk, K. et al. J. Biol. Chem. 265:9413 (1990)). The cells were pre-treated with INF-α, -β, or -γ, or poly (I-C) as described in Example 5. Binding reactions were carried out in a total volume of 20 μl, containing nuclear extract (10 μg total protein), labeled DNA (50,000 cpm), varying amounts of unlabeled competitor oligonucleotide and poly (I-C) (1 μg) in EMSA buffer (5 mM KCl, 10 mM Tris-HCl (pH 7.5), 1 mM dithiothreitol, 1 mM EDTA, 4% glycerol) for 10 minutes at room temperature. Gel supershift assays were performed as described above, except that antibodies specific for various promoter-binding proteins were added after the initial binding reaction and the mixture was incubated overnight at 4° C. The samples were then fractionated by electrophoresis on a 4% polyacrylamide gel at 10 mA at 4° C. in 0.3×TBE running buffer. The gel was then dried and exposed to x-ray film at -70° C. overnight.
# bak promoter GAS = format: cell-based, human
# Procedure: as §1
substance,measurement,setting,value
"Double-stranded deoxyinosine-deoxycytosine copolymer [poly (I-C), reference compound]","IRF protein binding to Bak ISRE (complexes C1, C2, C3)",bak intron 1 ISRE,enhanced
same,specific protein binding to Bak GAS (complex C1),bak promoter GAS,not observed

# — US6436639B1, “Bak promoter expression system” (Tanox, Inc., priority 1997, dated 2002)
